Test results from PubChem BioAssay AID504466 (National Center for Advancing Translational Sciences (NCATS), 2011).
The entries are a selection whose mix differs from that of the whole data set. Records with an inconclusive call do not appear. Some salts or complexes appear as unconnected parts, following the source record. Calls of active or inactive are those of the source. The call rests on the fitted dose curve; in most records, active means well fitted activation curve with a large enough effect; inconclusive means small, poorly fitted or top-dose-only effect; inactive means no such curve, though single readings can be large or run the other way.

Experiment: qHTS screen for small molecules that induce genotoxicity in human embryonic kidney (HEK293T) cells expressing luciferase-tagged ELG1; further: % of control where 0% means no effect; nearly all actives have a fitted effect of over 60% in size
Conditions: HEK293T ELG1-luciferase reporter, luminescence, 16 h; at 46 µM (top of the series)
From the text: NIH Molecular Libraries Probe Production Network [MLPCN] NIH Chemical Genomics Center [NCGC] MLPCN Grant: 1 R03 MH092164-01 Assay Provider: Kyungjae Myung, NHGRI, NIH Keywords: MLPCN, qHTS, NCGC, genotoxicity, cancer Assay Overview: Cancer cells divide rapidly compared to normal cells in the body. During cell division, cancer cells need to duplicate their genome by DNA replication. The failure of genome duplication leads to cancer cells' death. Therefore, inhibitors of DNA replication could specifically kill cancer cells. Based on this concept, many chemotherapeutic agents were developed and have been used to treat cancer patients. However, there are a limited number of agents available in the clinical setting, and some of those that do exist have low efficacy and severe side effects. Therefore, if we can find the compounds that effectively block DNA replication either by directly damaging DNA or by inhibiting other cellular mechanisms, the options for cancer treatment will be broadened. With this in mind, we developed a quantitative high-throughput ELG1-luciferase reporter gene assay. Since the level of human ELG1 protein is enhanced in response to genetic stresses, increases in luciferase activity can be used to identify compounds that cause genetic stress.
Assay Protocol Summary: For genotoxicity screening, 2,000 cells in 5 uL/well were dispensed into white, solid-bottom 1536-well plates using a solenoid-based dispenser. Following transfer of 23 nL compound or DMSO vehicle by a pin tool, the plates were incubated 16 hr at 37 °C and 5% CO2. 5 ul ONE-Glo (Promega) was then added to each plate and following a 30 min incubation at room temperature, luciferase activity was quantified on a ViewLux CCD-based plate reader.

Compound | activity change, positive = activation
CC(C)(C)OC(=O)N1CCC(Nc2ccccc2)CC1 | inactive: -4.67%
O=C(O)C1(Nc2ccccc2)CCN(Cc2ccccc2)CC1 | inactive: -2.16%
CCCOc1ccc(C(=O)NCC2(N(C)C)CCCCC2)cc1 | inactive: 0.0406%
CCOc1ncccc1C(=O)NCC1(N2CCOCC2)CCCCC1 | inactive: -0.527%
CN1CCC(Nc2ccc(F)c(Cl)c2)CC1 | inactive: -2.06%
CN1CCC(Nc2ccc(Cl)cc2)CC1 | inactive: 1.63%
CCCOc1ccc(C)cc1CN(CCCl)CCCl | inactive: -7.93%
COc1cccc(C(=O)N(c2cc(C)cc(C)c2)C2CCN(C(=O)OC(C)(C)C)CC2)c1 | inactive: -14%
COc1cc(OC)cc(C(=O)NCC2(N3CCOCC3)CCCCC2)c1 | inactive: -2.39%
CCC(CO)(C(=O)OC1CN2CCC1CC2)c1ccccc1 (configuration not stated) | inactive: -2.84%
Cc1ccc(C(=O)NCC2(N3CCCCC3)CCCCC2)o1 | inactive: 1.4%
Fc1ccccc1NC1CCN(Cc2ccccc2)CC1 | inactive: -1.17%
COc1cc(OC)cc(C(=O)NCC2(N3CCCCC3)CCCCC2)c1 | inactive: -12.8%
O=C(NCC1(N2CCCCC2)CCCCC1)c1ccco1 | inactive: -3.74%
CN(C)c1ccc(C(=O)NCC2(N3CCCCC3)CCCCC2)cc1 | inactive: 0.359%
CCN1CCC(Nc2cccc(F)c2)CC1 | inactive: 0.233%
CCOC(=O)C(CC)C1=NC(C)(C)Cc2ccccc21.O=[N+]([O-])c1cc([N+](=O)[O-])c(O)c([N+](=O)[O-])c1 (configuration not stated) | inactive: -0.167%
N#Cc1ccc(C(=O)NCC2(N3CCCCC3)CCCCC2)cc1 | inactive: -3.16%
CC(C)(C)OC(=O)N1CCC(N(C(=O)c2ccccc2)c2ccc(Cl)cc2)CC1 | inactive: -10.1%
CN(C)C1(CNC(=O)c2cccc(C#N)c2)CCCCC1 | inactive: 0.112%
c1ccc(CN2CCC(Nc3ccccc3)CC2)cc1 | inactive: 4.65%
CCCN1CCC(Nc2cc(OC)cc(OC)c2)CC1 | inactive: -2.32%
COc1ccc(C(=O)NCC2(N3CCOCC3)CCCCC2)cc1OC | inactive: 6.72%
COc1cc(C(=O)NCC2(N3CCOCC3)CCCCC2)cc(OC)c1C | inactive: -4.45%

Compound | activity change, positive = activation
O=C(NCC1(N2CCOCC2)CCCCC1)c1cc(Br)ccc1Cl | inactive: -1.44%
O=C(OC1CN2CCC1CC2)C1c2ccccc2C=Cc2ccccc21 (configuration not stated) | inactive: -2.5%
CCc1cc(C(=O)NCC2(N3CCCCC3)CCCCC2)sc1C | inactive: 0.524%
O=C(O)c1cccc(Nc2c([N+](=O)[O-])cc([N+](=O)[O-])cc2[N+](=O)[O-])c1 | inactive: 0.307%
CCOC(=O)N1CCC(Nc2ccc(C)cc2)CC1 | inactive: -3.03%
N/C(=N\O)c1c(N)no[n+]1[O-] | inactive: -1.25%
COc1cc(OC)c(C(=O)NCC2(N(C)C)CCCCC2)cc1OC | inactive: -2.37%
O=C(NCC1(N2CCOCC2)CCCCC1)c1cc(F)c(F)cc1Cl | inactive: -0.0361%
CC(C)c1ccc(NC2CCN(C(=O)OC(C)(C)C)CC2)cc1 | inactive: 11.2%
COc1ccc(CN(CCCl)CCCl)cc1Cl | inactive: -0.0495%
CN(C)c1cccc(C(=O)NCC2(N3CCCCC3)CCCCC2)c1 | inactive: 4.65%
O=[N+]([O-])c1cc([N+](=O)[O-])c(OC2CCCCC2O)c([N+](=O)[O-])c1 (configuration not stated) | inactive: -2.94%
CCCOc1ccc(C(=O)NCC2(N(C)C)CCCCC2)cc1OC | inactive: 4.37%
O=C(OC1CN2CCC1CC2)c1ccc([N+](=O)[O-])cc1 (configuration not stated) | inactive: -0.532%
O=C(NCC1(N2CCCCC2)CCCCC1)c1cncc(Br)c1 | inactive: 2.38%
COc1ccc2c(c1O)-c1c(O)c(OC)cc3c1[C@H](C2)[N+](C)(C)CC3.O=[N+]([O-])c1cc([N+](=O)[O-])c([O-])c([N+](=O)[O-])c1[O-] | inactive: -0.62%
CCN1CCC(Nc2ccc(Cl)cc2)CC1 | inactive: -0.065%
N#CC1(Nc2ccccc2)CCN(CCc2ccccc2)CC1 | inactive: 1.07%
O=C(NCC1(N2CCCCC2)CCCCC1)c1cccc([N+](=O)[O-])c1 | inactive: 0.324%
CSc1ccc(C(=O)NCC2(N3CCOCC3)CCCCC2)cc1 | inactive: -1.29%
O=C(NCC1(N2CCOCC2)CCCCC1)c1cc(=O)[nH]c2ccccc12 | inactive: 4.94%
COc1cc(C(=O)NCC2(N3CCCCC3)CCCCC2)ccc1OC(F)F | inactive: 0.393%
COc1ccc(NC2CCN(C(=O)OC(C)(C)C)CC2)cc1 | inactive: -3.55%
CC(C)c1ccc(C(=O)NCC2(N3CCOCC3)CCCCC2)cc1 | inactive: -0.106%

Compound | activity change, positive = activation
CN1CCN(CCOC(=O)C(O)(c2ccccc2)c2ccccc2)CC1 | inactive: -0.423%
O=[N+]([O-])c1cc([N+](=O)[O-])c(NCC2CCS(=O)(=O)C2)c([N+](=O)[O-])c1 (configuration not stated) | inactive: -3.7%
O=C(NCC1(N2CCCCC2)CCCCC1)c1cccc(C(F)(F)F)c1 | inactive: 8.2%
CCCCOc1ccc(C(=O)NCC2(N3CCOCC3)CCCCC2)cc1 | inactive: -0.44%
CCOC(=O)N1CCC(Nc2ccc(F)cc2)CC1 | inactive: -0.259%
COc1ccc(NC2CCN(CCc3ccccc3)CC2)c(OC)c1 | inactive: 0%
CCOc1ccc(C)cc1CN(CCCl)CCCl | inactive: -5.99%
COc1cc(C(=O)NCC2(N(C)C)CCCCC2)ccc1OC(F)F | inactive: -0.58%
CCOC(=O)N1CCC(Nc2cccc(C)c2)CC1 | inactive: -0.871%
Cc1ccc(OCC(C)C)c(CN(CCCl)CCCl)c1 | inactive: -2.77%
CSc1ccccc1C(=O)NCC1(N2CCCCC2)CCCCC1 | inactive: -0.0438%
COc1ccc(C(=O)NCC2(N3CCCCC3)CCCCC2)cc1 | inactive: 5.61%
COc1ccc(C(=O)NCC2(N3CCCCC3)CCCCC2)c(OC)c1OC | inactive: -0.412%
CC(C)(C)OC(=O)N1CCC(N(C(=O)c2ccccc2)c2ccc(F)cc2)CC1 | inactive: -3.13%
O=C(NCC1(N2CCCCC2)CCCCC1)c1ccc(=O)[nH]c1 | inactive: 5.41%
O=C(NCC1(N2CCCCC2)CCCCC1)c1cccs1 | inactive: 0.638%
O=C(OC1CN2CCC1CC2)C1c2ccccc2Oc2ccccc21 (configuration not stated) | inactive: -2.01%
O=C(NCC1(N2CCCCC2)CCCCC1)c1ccc(Cl)s1 | inactive: 1.23%
N#CC1(Nc2ccccc2)CCN(Cc2ccccc2)CC1 | inactive: -1.38%
COc1ccc(Cl)cc1C(=O)NCC1(N2CCOCC2)CCCCC1 | inactive: -4.43%
CCOC(=O)N1CCC(Nc2ccc(OC)cc2)CC1 | inactive: -2.84%
O=C(NCC1(N2CCCCC2)CCCCC1)c1ccc(Cl)nc1 | inactive: -0.627%
Cc1cc(C)cc(N(C(=O)c2ccccc2)C2CCN(C(=O)OC(C)(C)C)CC2)c1 | inactive: -10.1%
O=C(NCC1(N2CCOCC2)CCCCC1)c1cc2ccccc2o1 | inactive: -5.85%
